From US20240150335A1, “FUSED RING DERIVATIVES CONTAINING 1,4-OXAZEPANE” (MEDSHINE DISCOVERY INC., priority 2021, published 2024)

Amino acid sequences for entries named in this document (tags omitted). Residues count along the entry.
UniProt P53634, 395-463: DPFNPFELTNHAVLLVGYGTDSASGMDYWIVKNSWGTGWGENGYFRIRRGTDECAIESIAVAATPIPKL
UniProt P53634, 25-134: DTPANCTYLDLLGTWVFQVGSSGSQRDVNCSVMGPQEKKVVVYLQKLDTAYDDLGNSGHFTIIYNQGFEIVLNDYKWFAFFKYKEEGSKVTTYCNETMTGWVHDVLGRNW
UniProt P53634, 231-394: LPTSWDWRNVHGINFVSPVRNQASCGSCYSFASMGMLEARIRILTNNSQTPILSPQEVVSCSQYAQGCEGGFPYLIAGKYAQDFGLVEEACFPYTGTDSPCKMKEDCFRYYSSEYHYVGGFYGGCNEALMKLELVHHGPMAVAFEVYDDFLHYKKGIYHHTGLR

Tests used:
[1] = molecular target: Recombinant human cathepsin C/DPP1; assay: Inhibition effect test of DPP1 enzyme activity; format: biochemical; details: recombinant human cathepsin C/DPP1, Gly-Arg-AMC substrate 12.5 μM, 25° C. 60 minutes; read-out: IC50, inhibitory activity on DPP1 enzyme
Description: Experimental Example 1: Inhibition Effect Test of DPP1 Enzyme Activity
Recombinant human cathepsin C/DPP1 was purchased from R&D Systems;
Recombinant human cathepsin L (rhCathepsin L) was purchased from R&D Systems;
Gly-Arg-AMC (hydrochloride) was purchased from CAYMAN CHEMICAL COMPANY.
1× activation buffer: 5 mM DTT 0.01% (V/V) Triton X-100 (preparation for current use);
1× assay buffer: 50 mM NaCl 5 mM DTT 0.01% (V/V) Triton X-100 (preparation for current use);
1× activation buffer was used to dilute recombinant human cathepsin C/DPP1 enzyme and recombinant human cathepsin L (rhCathepsin L) enzyme to concentrations of 2 ng/μL and 0.4 ng/μL, respectively; equal volume of two working solutions of enzyme was taken, mixed well and incubated at 25° C. for 60 minutes;
the compounds to be tested were 5-fold diluted with a multi-channel pipette to the 8th concentration, i.e., diluted from 1 mM to 12.8 nM. Then 1× experimental buffer was used to dilute each compound to be tested by gradient into a 4% DMSO working solution. The working solution was added to corresponding wells for 5 μL/well, and duplicate experiment was set. The mixture was centrifuged at 1000 rpm for 1 minute; […]
after incubation, fluorescence detection was performed using a multi-label analyzer with an excitation wavelength of 360 nm and an emission wavelength of 460 nm. […]

DPP1 of U937 cells = DPP1 of U937 cells (Homo sapiens (Human), UniProt P53634); assay: Activity test of inhibiting DPP1 in U937 cells; format: cell-based; details: Gly-Phe-AFC probe, read-out: IC50, inhibitory activity on DPP1 of U937 cells
Description: Experimental Example 2: Activity Test of Inhibiting DPP1 in U937 Cells
Experimental Materials: • 1) Experimental reagents and consumables […]
3) the plate was read, and the data were analyzed: • (1) plate reading: after the cell incubation was completed, the cell plate was taken out, and the plate was read on Victor Nivo. […]

IC50 [1]: 0.84 nM
IC50 (DPP1 of U937 cells): 0.64 nM
Compound: Cn1c(=O)oc2ccc(-c3ccc(C[C@@H](C#N)NC(=O)[C@@H]4CNCCCO4)c(F)c3)cc21 [Compound 6]
